Source: patent publication US10307425B2, “Compositions and methods for treating toxoplasmosis, cryptosporidiosis and other apicomplexan protozoan related diseases” (UNIVERSITY OF WASHINGTON, priority 2015, dated 2019)

Sequences of proteins named here, by UniProt entry; tags and fusion partners are left off. Residues count along the entry.
UniProt Q9BJF5, 1-507: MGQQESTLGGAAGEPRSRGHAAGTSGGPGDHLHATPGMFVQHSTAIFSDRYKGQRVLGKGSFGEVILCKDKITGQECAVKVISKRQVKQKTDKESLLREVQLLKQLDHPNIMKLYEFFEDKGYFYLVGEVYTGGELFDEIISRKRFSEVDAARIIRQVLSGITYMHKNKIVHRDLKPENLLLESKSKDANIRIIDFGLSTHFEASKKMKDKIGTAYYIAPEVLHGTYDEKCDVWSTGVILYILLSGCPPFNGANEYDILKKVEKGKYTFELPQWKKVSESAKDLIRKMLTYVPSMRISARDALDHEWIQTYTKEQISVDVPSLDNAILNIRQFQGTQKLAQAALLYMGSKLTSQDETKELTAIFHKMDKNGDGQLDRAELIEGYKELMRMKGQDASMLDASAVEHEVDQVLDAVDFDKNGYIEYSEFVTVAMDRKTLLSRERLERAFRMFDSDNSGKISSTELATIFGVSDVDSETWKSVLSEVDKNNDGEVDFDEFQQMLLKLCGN

Biological target: TgCDPK1 (Toxoplasma gondii, UniProt Q9BJF5)
Assay: biochemical

Compound: COCCOc1ccc2cc(-c3nn(CC4CCN(C)CC4)c4ncnc(N)c34)ccc2c1 [Example 11, 3-(6-(2-Methoxyethoxy)naphthalen-2-yl)-1-((1-methylpiperidin-4-yl)methyl)-1H-pyrazolo[3,4-d]pyrimidin-4-amine]
- IC50: 15.5 nM
